{"source": "patent US6960454B2", "about": "“Methods for making and using a thermophilic enzyme as a β-glycosidase” (Director-General of Agency of Industrial Science and …, priority 1998, dated 2005)", "proteins": {"B1": {"name": "his-tagged BGPh from P. horikoshii (His-BGPh) (Pyrococcus horikoshii OT3) (protein)", "chain": "MPLKFPEMFLFGTATSSHQIEGNNRWNDWWYYEQIGKLPYRSGKACNHWELYRDDIQLMTSLGYNAYRFSIEWSRLFPEENKFNEDAFMKYREIIDLLLTRGITPLVTLHHFTSPLWFMKKGGFLREENLKHWEKYIEKVAELLEKVKLVATFNEPMVYVMMGYLTAYWPPFIRSPFKAFKVAANLLKAHAIAYELLHGKFKVGIVKNIPIILPASDKERDRKAAEKADNLFNWHFLDAIWSGKYRGVFKTYRIPQSDADFIGVNYYTASEVRHTWNPLKFFFEVKLADISERKTQMGWSVYPKGIYMALKKASRYGRPLYITENGIATLDDEWRVEFIIQHLQYVHKAIEDGLDVRGYFYWSFMDNYEWKEGFGPRFGLVEVDYQTFERRPRKSAYVYGEIARSKEIKDELLKRYGLPELQL"}}, "substrate": "O=[N+]([O-])c1ccc(O[C@@H]2O[C@H](CO)[C@@H](O)[C@H](O)[C@@H]2O)cc1", "experiment": "purified protein, by the assay type", "format": "biochemical", "conditions": "other: His-BGPh, 90° C. and pH 6.0", "data": [{"protein": "B1", "values": [{"measurement": "Km", "result": 140, "unit": "µM"}]}]}
